Biological target: recombinant human estrone sulfatase (Homo sapiens, UniProt P08842)
Test: Test for inhibition of estrone sulfatase (steroid sulfatase)
Settings: read-out: Inhibitory activity against steroid sulfatase IC50; 4-methylumbelliferyl sulfate 0.3 mmol/L, phosphate buffer pH 7.5, 37° C., 1 hour; enzyme expressed in CHO cells, partially purified
Protocol: Test Example 1: Test for Inhibition of Estrone Sulfatase (Steroid Sulfatase)
4-Methylumbelliferyl sulfate (final concentration 0.3 mmol/L), recombinant human estrone sulfatase (7.8 ng/well), and each solution of the test compound having each test concentrations (test compound was dissolved in 0.001 mL of DMSO) were added to a phosphate buffer (pH 7.5) (final volume 0.1 mL) containing 0.28 mol/L sucrose and 0.04 mol/L nicotinamide. An enzyme reaction was conducted at 37° C. for 1 hour. The human estrone sulfatase gene was introduced into Chinese Hamster Ovary (CHO) cells, and the recombinant human estrone sulfatase was expressed, then it was used after partial purification. After completing the enzyme reaction, 2 mol/L glycine-sodium hydroxide solution (pH 10.3) (0.13 mL) was added and stirred. Using a fluorescent plate reader (Cyto Fluor II), the fluorescent strength of the generated 4-methylumbelliferone was measured. […] The inhibitory activity against estrone sulfatase for each concentration of the test compounds was calculated using the following equation. […]
The inhibitory activity against estrone sulfatase of the aryl sulfamate derivative can be expressed as the concentration (IC50) of aryl sulfamate derivative at which the estrone sulfatase activity in the presence of the aryl sulfamate derivative is half of that when no test compound is added.

Amino acid sequences for entries named in this document (tags omitted). Residues count along the entry.
UniProt P08842, 22-583 limits assumed: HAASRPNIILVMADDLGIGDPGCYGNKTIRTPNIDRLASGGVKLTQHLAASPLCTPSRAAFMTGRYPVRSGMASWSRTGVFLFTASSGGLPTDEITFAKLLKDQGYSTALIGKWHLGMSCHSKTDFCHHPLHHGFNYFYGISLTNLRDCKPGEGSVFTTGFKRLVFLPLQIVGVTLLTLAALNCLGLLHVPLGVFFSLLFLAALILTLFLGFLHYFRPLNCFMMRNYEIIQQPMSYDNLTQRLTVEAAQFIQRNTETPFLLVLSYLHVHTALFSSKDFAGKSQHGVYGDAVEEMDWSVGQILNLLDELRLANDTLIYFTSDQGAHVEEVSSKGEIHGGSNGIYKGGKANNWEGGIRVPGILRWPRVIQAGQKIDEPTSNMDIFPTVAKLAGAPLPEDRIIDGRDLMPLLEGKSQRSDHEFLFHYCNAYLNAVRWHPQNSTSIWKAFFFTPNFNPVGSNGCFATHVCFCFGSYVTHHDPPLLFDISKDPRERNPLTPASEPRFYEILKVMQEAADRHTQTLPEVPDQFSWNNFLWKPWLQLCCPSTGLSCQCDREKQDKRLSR

IC50: < 12 nM
SMILES: CCCCCCCCNC(=O)C(C#N)=C(C)c1ccc(OS(N)(=O)=O)cc1

— US20040254241A1, “Aryl sulfamate derivatives” (priority 2004, published 2004)
